Measured values: publication PMC10359466

Target: HsRPA complex: 6xHis-RPA1;HsRPA2;HsRPA3 (Homo sapiens;Homo sapiens;Homo sapiens, UniProt P27694;P15927;P35244 1-616;1-270;1-121, ||)
Test: MST; 20 mM Tris pH 7.5, 10 mM NaCl, 10 mM MgCl2, 2 mM DTT, 10% glycerol, 0.1 mg/ml BSA, 15 min, room temperature; EMSA 2 nM probe (gel at 4 C), MST 10 nM probe
Settings: protein: recombinant;recombinant;recombinant; tags: N-term 6xHis, thrombin site;none;none; copies: 1;1;1; label: 5' Cy5 (MST) or 5' IRDye800 (EMSA); single strand

B1: dT32 (ssDNA)
DNA: TTTTTTTTTTTTTTTTTTTTTTTTTTTTTTTT
Question: B1 was tested. Which Kd did it give?
Answer: The Kd was 15.8 ± 6.6 nM.
